Laboratory results: ChEMBL document CHEMBL1136005 (J Med Chem, 2002)

Chains of the proteins cited; added tags and fusions are not shown. Lines headed by an entry give the natural chain unless they say otherwise; changes in a name come on top.
UniProt P09619, whole entry: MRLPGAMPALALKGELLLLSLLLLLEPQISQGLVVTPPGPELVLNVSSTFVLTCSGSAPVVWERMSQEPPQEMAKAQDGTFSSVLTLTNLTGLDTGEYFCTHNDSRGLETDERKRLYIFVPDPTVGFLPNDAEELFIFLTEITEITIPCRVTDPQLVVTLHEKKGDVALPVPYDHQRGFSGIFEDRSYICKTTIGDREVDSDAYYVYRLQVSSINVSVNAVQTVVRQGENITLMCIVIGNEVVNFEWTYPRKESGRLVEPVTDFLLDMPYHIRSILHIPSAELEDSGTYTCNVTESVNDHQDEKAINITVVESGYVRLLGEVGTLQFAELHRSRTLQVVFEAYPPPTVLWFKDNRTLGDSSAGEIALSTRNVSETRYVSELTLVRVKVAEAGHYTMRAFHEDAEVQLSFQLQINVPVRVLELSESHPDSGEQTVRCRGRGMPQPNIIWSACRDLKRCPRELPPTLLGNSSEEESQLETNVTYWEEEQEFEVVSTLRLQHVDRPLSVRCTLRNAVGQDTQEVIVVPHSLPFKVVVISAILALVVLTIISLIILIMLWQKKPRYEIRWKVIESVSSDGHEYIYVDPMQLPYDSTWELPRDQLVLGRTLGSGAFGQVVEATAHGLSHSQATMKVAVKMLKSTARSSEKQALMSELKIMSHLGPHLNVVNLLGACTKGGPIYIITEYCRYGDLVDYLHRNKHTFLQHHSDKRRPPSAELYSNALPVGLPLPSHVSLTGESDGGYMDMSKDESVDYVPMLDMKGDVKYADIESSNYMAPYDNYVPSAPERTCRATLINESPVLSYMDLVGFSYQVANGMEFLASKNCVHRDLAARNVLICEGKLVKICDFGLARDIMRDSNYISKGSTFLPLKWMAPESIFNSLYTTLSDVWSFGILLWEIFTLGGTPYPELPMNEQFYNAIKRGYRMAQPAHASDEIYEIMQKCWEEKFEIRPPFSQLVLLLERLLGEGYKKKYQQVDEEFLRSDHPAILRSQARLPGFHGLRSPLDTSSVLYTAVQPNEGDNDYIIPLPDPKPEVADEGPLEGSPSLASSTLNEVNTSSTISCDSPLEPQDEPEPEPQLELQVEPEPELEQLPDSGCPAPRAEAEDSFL
UniProt P16234: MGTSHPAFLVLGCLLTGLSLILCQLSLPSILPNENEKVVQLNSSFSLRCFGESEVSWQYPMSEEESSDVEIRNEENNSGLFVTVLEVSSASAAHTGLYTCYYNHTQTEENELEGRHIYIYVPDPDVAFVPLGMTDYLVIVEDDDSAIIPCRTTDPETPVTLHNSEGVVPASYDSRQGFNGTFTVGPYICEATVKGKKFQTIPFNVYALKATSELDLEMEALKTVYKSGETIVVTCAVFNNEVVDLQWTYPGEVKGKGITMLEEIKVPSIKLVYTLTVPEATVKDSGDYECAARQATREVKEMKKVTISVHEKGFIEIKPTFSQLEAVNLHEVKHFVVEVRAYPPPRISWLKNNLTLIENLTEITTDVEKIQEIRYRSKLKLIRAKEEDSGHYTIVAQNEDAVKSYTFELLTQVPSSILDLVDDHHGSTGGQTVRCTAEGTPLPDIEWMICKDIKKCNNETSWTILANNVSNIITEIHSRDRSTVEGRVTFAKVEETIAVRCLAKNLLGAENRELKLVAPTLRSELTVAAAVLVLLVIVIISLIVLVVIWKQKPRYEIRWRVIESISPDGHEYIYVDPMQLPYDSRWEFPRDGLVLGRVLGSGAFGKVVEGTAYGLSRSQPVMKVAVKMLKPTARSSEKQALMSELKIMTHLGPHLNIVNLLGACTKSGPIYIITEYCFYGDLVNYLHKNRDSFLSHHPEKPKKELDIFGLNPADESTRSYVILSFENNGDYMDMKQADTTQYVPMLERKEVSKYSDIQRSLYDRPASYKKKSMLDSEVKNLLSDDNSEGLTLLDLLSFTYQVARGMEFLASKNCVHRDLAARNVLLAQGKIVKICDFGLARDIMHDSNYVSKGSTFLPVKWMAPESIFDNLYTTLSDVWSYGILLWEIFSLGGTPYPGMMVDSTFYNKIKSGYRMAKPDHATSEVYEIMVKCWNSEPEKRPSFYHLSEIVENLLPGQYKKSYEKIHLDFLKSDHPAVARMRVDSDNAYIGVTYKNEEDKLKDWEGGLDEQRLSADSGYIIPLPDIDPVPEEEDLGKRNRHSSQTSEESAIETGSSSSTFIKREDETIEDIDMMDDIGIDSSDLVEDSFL

Target: Platelet-derived growth factor receptor (Homo sapiens, UniProt P09619+P16234)
Assay: Concentration required for 50% inhibition against autophosphorylation of Platelet-derived growth factor receptor beta in intact cells using a two site ELISA
Assay type: cell-based

COc1cc2ncnc(N3CCN(C(=O)Nc4ccc(Cl)cc4)CC3)c2cc1OC
IC50: 1100 nM
